Data published in article PMC5794259, “Novel ATP-cone-driven allosteric regulation of ribonucleotide reductase via the radical-generating subunit” (eLife, 2018).

Chains of the proteins cited; added tags and fusions are not shown.
UniProt A3XHF9, entry or part of it: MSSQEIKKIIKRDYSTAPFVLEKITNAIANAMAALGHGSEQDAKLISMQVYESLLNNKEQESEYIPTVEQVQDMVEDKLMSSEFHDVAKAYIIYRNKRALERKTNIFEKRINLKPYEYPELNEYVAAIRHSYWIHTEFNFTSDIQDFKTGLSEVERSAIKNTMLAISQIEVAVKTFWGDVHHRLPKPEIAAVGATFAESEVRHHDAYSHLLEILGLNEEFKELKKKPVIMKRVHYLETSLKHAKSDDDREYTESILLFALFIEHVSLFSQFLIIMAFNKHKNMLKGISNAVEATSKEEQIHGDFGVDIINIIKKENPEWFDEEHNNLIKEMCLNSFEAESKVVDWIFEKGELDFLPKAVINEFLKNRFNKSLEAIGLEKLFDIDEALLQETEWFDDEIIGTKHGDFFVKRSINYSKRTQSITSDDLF

Target: NrdB (Leeuwenhoekiella blandensis, UniProt A3XHF9)
Assay: Isothermal titration calorimetry (ITC), nucleotide binding to NrdB
Details: 10°C, one-set-of-sites model
Description: Isothermal titration calorimetry (ITC) experiments were carried out on a MicroCal PEAQ-ITC system (Malvern Instruments Ltd) in a buffer containing 25 mM HEPES (pH 7.65), 150 mM NaCl, and 10% glycerol, 2 mM tris(2-carboxyethyl)phosphine, and 5 mM MgCl2. Measurements were done at 10°C. The initial injection volume was 0.4 μl over a duration of 0.8 s. All subsequent injection volumes were 2–2.5 μl over 4–5 s with a spacing of 150 s between the injections. Data for the initial injection were not considered. For dATP binding analysis, the concentration of NrdB in the cell was 12 µM and dATP in syringe 120 or 140 µM. Reverse titrations were performed with 113 µM NrdB in the syringe and 12 or 30 µM dATP in the cell. For titration of dATP into NrdB∆99, protein concentration in the cell and dATP concentration in the syringe were 50 µM and 900 µM respectively. For dADP binding analysis, the NrdB concentration in the cell was 20–50 µM and ligand concentrations in the syringe were 500–750 µM. For titration of ATP into NrdB, cell and syringe concentrations were 50 and 1600 µM respectively. The data were analyzed using the built-in one set of sites model of the MicroCal PEAQ-ITC Analysis Software (Malvern Instruments Ltd). A fixed ligand/protein stoichiometry of 2 was used for dATP to NrdB titrations. […]

For dADP, the Kd was 15 ± 1.5 µM.
